Test results as given in publication PMC9243104 (Nature Communications, 2022).

The chains behind the UniProt entries cited, without tags or fusion partners.
UniProt P27694, whole entry, chain 1 of 3: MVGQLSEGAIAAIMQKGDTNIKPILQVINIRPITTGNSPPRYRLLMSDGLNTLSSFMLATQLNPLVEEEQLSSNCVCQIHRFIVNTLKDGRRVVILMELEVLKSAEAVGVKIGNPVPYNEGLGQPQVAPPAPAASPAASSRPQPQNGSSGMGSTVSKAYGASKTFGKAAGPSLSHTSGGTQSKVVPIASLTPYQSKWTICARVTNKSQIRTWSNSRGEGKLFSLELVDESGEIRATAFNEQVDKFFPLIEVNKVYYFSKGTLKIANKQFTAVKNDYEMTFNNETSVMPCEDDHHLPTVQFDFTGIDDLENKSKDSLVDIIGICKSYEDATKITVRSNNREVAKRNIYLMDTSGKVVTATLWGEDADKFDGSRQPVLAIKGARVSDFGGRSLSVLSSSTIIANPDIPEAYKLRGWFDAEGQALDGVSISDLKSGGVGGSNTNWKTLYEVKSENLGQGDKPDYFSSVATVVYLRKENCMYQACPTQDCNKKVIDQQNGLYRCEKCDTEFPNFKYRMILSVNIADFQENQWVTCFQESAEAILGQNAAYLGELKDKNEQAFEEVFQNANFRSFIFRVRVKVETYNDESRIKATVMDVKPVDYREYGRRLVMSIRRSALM
Human heterotrimeric replication protein A (RPA1, RPA2, RPA3), UniProt P15927, whole entry, chain 2 of 3: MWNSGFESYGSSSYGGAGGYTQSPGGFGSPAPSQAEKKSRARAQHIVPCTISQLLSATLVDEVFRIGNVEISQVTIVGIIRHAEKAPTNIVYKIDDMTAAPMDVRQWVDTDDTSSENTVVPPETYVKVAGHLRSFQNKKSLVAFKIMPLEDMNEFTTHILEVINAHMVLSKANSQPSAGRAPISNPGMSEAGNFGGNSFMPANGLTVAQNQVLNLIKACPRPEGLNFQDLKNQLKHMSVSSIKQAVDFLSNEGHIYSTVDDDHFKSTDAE
Human heterotrimeric replication protein A (RPA1, RPA2, RPA3), UniProt P35244, whole entry, chain 3 of 3: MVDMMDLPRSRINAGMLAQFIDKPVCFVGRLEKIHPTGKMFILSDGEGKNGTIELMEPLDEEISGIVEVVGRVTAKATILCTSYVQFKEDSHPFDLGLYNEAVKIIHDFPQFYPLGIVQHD

Target: T1, Human heterotrimeric replication protein A (RPA1, RPA2, RPA3) (human, UniProt P27694 1-616; P15927 1-270; P35244 1-121)
T1 construct: human RPA1 (RPA70) subunit of the heterotrimer; human RPA2 (RPA32) subunit of the heterotrimer; human RPA3 (RPA14) subunit of the heterotrimer; also called hRPA1-3; RPA1-3; source: E. coli, purified (Affi-gel Blue, hydroxylapatite, Mono-Q); copies: + +
Assay: ELISA; 1 µg of 1st protein coated on a 96-well plate (1 h, 25 °C), blocked with 5% milk in PBS; 2nd protein added at increasing concentrations in blocking buffer (1 h, 25 °C); detected with anti-WASp antibody, OD450; RPA coated alone or after pre-incubation with 1 nM ssDNA
Details: both partners purified

binding result: binds
B1: Recombinant human WT*WASp (Wiskott-Aldrich syndrome protein) (natural protein, UniProt P42768 1-502, looked up)
chain: MSGGPMGGRPGGRGAPAVQQNIPSTLLQDHENQRLFEMLGRKCLTLATAVVQLYLALPPGAEHWTKEHCGAVCFVKDNPQKSYFIRLYGLQAGRLLWEQELYSQLVYSTPTPFFHTFAGDDCQAGLNFADEDEAQAFRALVQEKIQKRNQRQSGDRRQLPPPPTPANEERRGGLPPLPLHPGGDQGGPPVGPLSLGLATVDIQNPDITSSRYRGLPAPGPSPADKKRSGKKKISKADIGAPSGFKHVSHVGWDPQNGFDVNNLDPDLRSLFSRAGISEAQLTDAETSKLIYDFIEDQGGLEAVRQEMRRQEPLPPPPPPSRGGNQLPRPPIVGGNKGRSGPLPPVPLGIAPPPPTPRGPPPPGRGGPPPPPPPATGRSGPLPPPPPGAGGPPMPPPPPPPPPPPSSGNGPAPPPLPPALVPAGGLAPGGGRGALLDQIRQGIQLNKTPGAPESSALQPPPQSSEGLVGALMHVMQKRSRAIHSSDEGEDQAGDEDEDDEWDD
notes: human WASp, codon-optimized WAS gene cloned into the NdeI-HindIII site of pET30a; also called wild-type WASp; native purified human WASp; source: E. coli DE3 (pET30a-WT*WASp), purified using Flag-tag; commercially produced by GenScript
